Experiments:
[1] = target: Glutamate carboxypeptidase 2 (Rattus norvegicus) (UniProt P70627); experiment: Percentage inhibition at 1 uM against rat Glutamate carboxypeptidase II, using a substrate concentration of 5 uM
[2] = target: Glutamate carboxypeptidase 2 (Rattus norvegicus) (UniProt P70627); conditions: 100 uM

Amino acid sequences for entries named in this document (tags omitted).
UniProt P70627, whole entry, looked up: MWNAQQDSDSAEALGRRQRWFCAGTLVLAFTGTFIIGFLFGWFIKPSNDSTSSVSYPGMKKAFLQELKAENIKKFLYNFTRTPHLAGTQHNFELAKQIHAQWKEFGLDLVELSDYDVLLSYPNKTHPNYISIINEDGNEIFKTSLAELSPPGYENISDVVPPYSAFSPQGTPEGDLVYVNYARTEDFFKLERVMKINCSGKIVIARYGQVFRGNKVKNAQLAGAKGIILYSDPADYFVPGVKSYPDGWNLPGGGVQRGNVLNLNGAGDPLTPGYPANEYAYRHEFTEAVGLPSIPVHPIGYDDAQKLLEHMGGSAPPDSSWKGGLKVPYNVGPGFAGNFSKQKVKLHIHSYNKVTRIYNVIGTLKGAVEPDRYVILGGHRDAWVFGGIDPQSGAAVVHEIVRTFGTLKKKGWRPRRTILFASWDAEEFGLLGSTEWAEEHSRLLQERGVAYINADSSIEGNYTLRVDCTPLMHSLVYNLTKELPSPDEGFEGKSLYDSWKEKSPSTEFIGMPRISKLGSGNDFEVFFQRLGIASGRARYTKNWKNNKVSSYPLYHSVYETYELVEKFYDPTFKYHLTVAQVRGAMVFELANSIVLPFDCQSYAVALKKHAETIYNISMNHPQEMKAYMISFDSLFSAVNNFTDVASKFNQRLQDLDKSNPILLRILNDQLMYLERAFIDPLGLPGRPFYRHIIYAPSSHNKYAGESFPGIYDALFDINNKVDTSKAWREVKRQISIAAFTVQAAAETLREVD

Structure (SMILES)	inhibition [1]	inhibition [2]
O=C(O)CC[C@H](NC(=O)N[C@H](CCC(=O)O)C(=O)O)C(=O)O	25%	
O=C(O)CC[C@@H](NC(=O)N[C@H](CCC(=O)O)C(=O)O)C(=O)O		67%
